The chains behind the UniProt entries cited, without tags or fusion partners.
UniProt Q01827, whole entry: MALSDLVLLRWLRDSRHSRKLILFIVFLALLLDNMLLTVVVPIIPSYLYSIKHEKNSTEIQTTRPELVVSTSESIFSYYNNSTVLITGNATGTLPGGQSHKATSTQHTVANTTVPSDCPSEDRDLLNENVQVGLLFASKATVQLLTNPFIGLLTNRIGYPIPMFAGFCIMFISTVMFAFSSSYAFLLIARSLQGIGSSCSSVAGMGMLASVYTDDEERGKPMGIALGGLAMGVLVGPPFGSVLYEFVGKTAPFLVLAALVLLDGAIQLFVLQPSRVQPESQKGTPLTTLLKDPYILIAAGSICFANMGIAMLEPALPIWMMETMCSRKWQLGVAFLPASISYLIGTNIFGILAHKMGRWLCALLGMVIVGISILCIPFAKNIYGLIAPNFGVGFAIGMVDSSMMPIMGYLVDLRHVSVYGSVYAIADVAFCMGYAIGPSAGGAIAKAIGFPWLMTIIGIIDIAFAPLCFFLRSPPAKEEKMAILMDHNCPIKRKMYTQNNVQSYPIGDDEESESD

In patent US20080108645A1, “Dihydrotetrabenazines And Pharmaceutical Compositions Containing Them” (CAMBRIDGE LABORATORIES, (IRELAND), LTD., priority 2004, published 2008):

Molecular target: T1, VMAT-2 (Rattus norvegicus, UniProt Q01827)
T1 construct: An adult rat striatal vesicular preparation was then prepared; from tissue; host or cells: adult Wistar rat striatum, vesicular membranes
Experiment: [3H] Dihydrotetrabenazine binding assay for VMAT-2, adult rat striatal vesicular membranes
Conditions: for nH: Hill slope of competition curve

Compound | nH | % sites, two-site fit (higher-affinity site) [%] | % sites, two-site fit (lower-affinity site) [%]
COc1cc2c(cc1OC)[C@H]1C[C@H](O)[C@@H](CC(C)C)CN1CC2 (single isomer, unassigned) [Isomer A, 3,11b-cis-dihydrotetrabenazine] | −0.40 ± 0.08 | – | –
COc1cc2c(cc1OC)[C@H]1C[C@H](O)[C@@H](CC(C)C)CN1CC2 (single isomer, unassigned) [Isomer B, 3,11b-cis-dihydrotetrabenazine] | −0.52 ± 0.06 | 26 | 74
COc1cc2c(cc1OC)[C@H]1C[C@@H](O)[C@@H](CC(C)C)CN1CC2 (single isomer, unassigned) [Isomer C, 3,11b-cis-dihydrotetrabenazine] | −0.77 ± 0.07 | – | –
COc1cc2c(cc1OC)[C@H]1C[C@@H](O)[C@@H](CC(C)C)CN1CC2 (single isomer, unassigned) [Isomer D, 3,11b-cis-dihydrotetrabenazine] | −0.72 ± 0.05 | – | –
